For 50 molecules, activation results are on record in PubChem BioAssay AID2676 (National Center for Advancing Translational Sciences (NCATS), 2010).

By UniProt entry, the sequences of proteins in these tests, tags left out. Where a name states a change or a piece, a line headed by the entry shows the natural chain unless it says otherwise.
UniProt Q9HBX9: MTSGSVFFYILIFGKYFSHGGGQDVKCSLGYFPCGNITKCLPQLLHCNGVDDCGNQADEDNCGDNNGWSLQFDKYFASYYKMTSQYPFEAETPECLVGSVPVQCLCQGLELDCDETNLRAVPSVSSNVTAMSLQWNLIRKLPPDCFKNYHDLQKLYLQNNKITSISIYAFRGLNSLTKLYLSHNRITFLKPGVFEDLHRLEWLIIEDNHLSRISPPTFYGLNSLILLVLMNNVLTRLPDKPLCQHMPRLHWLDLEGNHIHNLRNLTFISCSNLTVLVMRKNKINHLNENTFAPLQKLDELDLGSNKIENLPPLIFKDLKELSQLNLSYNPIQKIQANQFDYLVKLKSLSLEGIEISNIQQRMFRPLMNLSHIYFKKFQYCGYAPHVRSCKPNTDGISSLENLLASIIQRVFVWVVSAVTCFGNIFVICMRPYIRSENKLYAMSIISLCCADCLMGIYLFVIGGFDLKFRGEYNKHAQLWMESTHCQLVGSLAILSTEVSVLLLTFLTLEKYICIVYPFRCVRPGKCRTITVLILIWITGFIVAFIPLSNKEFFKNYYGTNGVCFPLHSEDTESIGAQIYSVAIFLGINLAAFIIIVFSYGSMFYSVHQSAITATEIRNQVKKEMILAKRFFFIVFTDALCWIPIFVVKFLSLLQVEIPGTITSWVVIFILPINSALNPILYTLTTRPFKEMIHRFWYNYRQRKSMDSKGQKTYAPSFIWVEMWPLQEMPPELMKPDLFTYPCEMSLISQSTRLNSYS

“And” between values parts separate entries of the source, which are not always exact repeats. Equal entries are not always repeated. This is a selection; strong and weak results do not stand in their true shares. The source made the active and inactive calls. Calls come from the whole dose curve; as a rule, active = well fitted activation curve with a large enough effect; inconclusive = small, poorly fitted or top-dose-only effect; inactive = flat fitted curve, though single readings scatter.
% is set by controls: 0 for no effect and ±100 for the full control effect.

This experiment deals with Relaxin receptor 1 (Homo sapiens) (UniProt Q9HBX9). Description: qHTS Assay for Agonists of the Relaxin Receptor RXFP1. Note: nearly all actives have a fitted effect of over 60% in size. The settings on record: HEK293T-RXFP1 cAMP TR-FRET, 30 min, percent of porcine relaxin response, buffer zero; at 57.5 µM (top of the series). From the text:
NIH Chemical Genomics Center [NCGC] NIH Molecular Libraries Probe Production Centers Network [MLPCN] MLPCN Grant: R03 MH085705-01A1 Assay Submitter (PI): Alexander Agoulnik NCGC Assay Overview: The relaxin hormone is involved in the variety of biological functions in normal tissues and diseases. The role of relaxin is well-established in female reproduction and parturition, mammary gland and endometrial development, maintenance of myometrial quiescence during pregnancy. Relaxin signaling through its G protein-coupled receptor (GPCR) RXFP1 results in ECM remodeling through regulation of collagen deposition, cell invasiveness, proliferation and overall tissue homeostasis. […] Recombinant human relaxin (rhRlx) is currently being tested in clinical trials as a protective agent in congestive heart failure, in treating severe preeclampsia, and as an anti-fibrotic agent in systemic sclerosis. Upon relaxin binding RXFP1 activation leads to the activation of adenylate cyclase (AC) via Gs. cAMP will activate PKA, which phosphorylates many signaling proteins. Thus, detection of cAMP increase is an easy and reliable indication of relaxin receptor activation. To screen for agonists of the relaxin receptor, a HEK293T cell line stably transfected with RXFP1 was used. RXFP1 activation was assayed by changes in cAMP levels as detected with a time-resolved fluorescence energy transfer (TR-FRET) cAMP detection kit.
NCGC Assay Protocol Summary: This is a cell-based assay for cAMP second messenger response to screen for agonists of the RXFP1 receptor. The assay was conducted in the presence of a PDE4 inhibitor (Ro 20174). The cells were lysed and the cAMP levels were measured with a TR-FRET cAMP kit. Presence of cAMP in the cell lysate disrupts binding between the cryptate-labeled anti-cAMP and d2-labeled cAMP pair, leading to a decrease in the TR-FRET signal. Data were normalized to the controls for basal activity (buffer only) and 100% activity (29 nM porcine relaxin). The EC50 values were determined from concentration-response data modeled with the standard Hill equation 1536-well assay protocol for the HEK293 RXFP1 cAMP assay: (1) Add 3 ul HEK293 RXFP1 cell culture. 2000 cells/well in DMEM/F12, 10% FBS, 1x Pen/Strep (dispensed offline with MultiDrop Combi). (2) Incubate 16-24 hr at 37C, 5% CO2. (3) Add 1 ul 400uM Ro20174 in DPBS, 0.05% BSA, 0.005% Tween 20. (3) Add 23 nl compounds in DMSO solution. Final concentration was 0.5 - 58 uM. (4) Incubate 30 min at 37C, 5% CO2. (5) Add 1 ul cAMP-d2 in lysis buffer (HTRF cAMP HiRange kit, CisBio). (6) Add 1 ul anti-cAMP antibody-cryptate in lysis buffer (HTRF cAMP HiRange kit, CisBio). (7) Incubate 30 min at room temperature. (6) Detect the assay plate in a ViewLux plate reader (PerkinElmer) with Ex=320 nm, Em1=615 nm and Em2=665 nm. Keywords: relaxin, RXFP1, RXFP2, G-protein coupled receptor, cAMP, agonist, high throughput screening, MLSMR, MLSCN, NIH Roadmap, qHTS and NCGC
Take `O=P(Nc1nc2ccc(Cl)cc2s1)(c1ccccc1)c1ccccc1`: the activation was inactive: 3.95%. The result for `CCOP(=O)(Nc1ccccc1)OCC` reads inactive: 0.0833% and inactive: -0.323%; that for `Cc1cc(SC(NC(=O)c2ccc(F)cc2)C(Cl)(Cl)Cl)ncn1` (stereo not given), inactive: 1.07%; that for `Cc1ccc(NP(=O)(Oc2ccccc2F)Oc2ccccc2F)nc1`, inactive: 4.53%. In the case of `O=[N+]([O-])c1cc([N+](=O)[O-])c(CCN2CCOCC2)c([N+](=O)[O-])c1` it was inactive: 0.868%; in that of `CCN(N=Nc1nonc1N)c1nonc1N`, inactive: 0.116%. For `Nc1cccc2ccc([As](=O)(O)O)cc12`, the activation is inactive: 7.33%. With `O=C(Nc1cc([As](=O)(O)O)ccc1O)c1ccccc1`, the activation was inactive: 0.224%. In the case of `CC(C)(C)C(=O)NC(Sc1ccncn1)C(Cl)(Cl)Cl` (stereo not given) it was inactive: -1.83%. In the case of `O=[N+]([O-])c1ncn(CCn2ncnc2[N+](=O)[O-])n1` it was inactive: -0.307%; in that of `O=[N+]([O-])c1cccc(NC2=NCC(CBr)S2)c1` (stereo not given), inactive: 2.44%; in that of `O=C(O)CNc1ccc([As](=O)(O)O)cc1`, inactive: 0.801%. The result for `COc1ccc(C2=NCC(CBr)S2)cc1` (stereo not given) reads inactive: -0.481%; that for `CC(=O)N1C2C3N(C(C)=O)C1C1N(C(C)=O)C(C(N1C(C)=O)N3C(C)=O)N2C(C)=O`, inactive: 0.238%; that for `O=[N+]([O-])c1cccc2n[nH]nc12`, inactive: -1.34%. On to `Cc1ccc(NP(=O)(Oc2ccccc2)Oc2ccccc2)nc1`, for which the activation is inactive: -3.6%. With `O=[N+]([O-])c1cc([N+](=O)[O-])c(CCNc2ccccc2)c([N+](=O)[O-])c1`, the activation is inactive: -1.15%.

With `CCc1nc2c(n1)c1c(non1O)c1c2no[n+]1[O-]`, the activation was inactive: -0.172%.

For the molecule `Nc1ccc([As](=O)(O)c2ccc(N)cc2)cc1`, the activation was inactive: -1.26%. Regarding `C[N+]1=C2C=CC=CC=C2SC12C([N+](=O)[O-])=CC([N+](=O)[O-])=C[C-]2[N+](=O)[O-]` (stereo not given), the activation was inactive: 18.9%. `CCN(/C(=N/P(=O)(N1CCOCC1)N1CCOCC1)N1CCOCC1)c1ccc(OC)cc1`: the activation is inactive: 2.83%.

Regarding `CC(C)=N/N=C(\N)N[N+](=O)[O-]`, the activation was inactive: 1.08%.

`CN(C)C(=O)OCCc1n(C)cc[n+]1C`: the activation was inactive: 1.12%.

On to `CC1CCN(C(=O)Oc2c(Cl)cc(Cl)c3cccnc23)CC1`, for which the activation was inactive: 1.79%. Take `COP1(=S)c2c(C)nn(CCC#N)c2N=C(c2ccc(F)cc2)N1C` (stereo not given): the activation was inactive: -0.182%. Regarding `O=C(COc1ccccc1)OC1CN2CCC1CC2` (stereo not given), the activation was inactive: -3.24%. `O=C(Nc1ccncc1[N+](=O)[O-])c1ccc([N+](=O)[O-])cc1[N+](=O)[O-]`: the activation is inactive: 12.9%. Regarding `CCOC(=O)c1ccc(NC(=O)C(C)(CCl)SC)cc1` (stereo not given), the activation is inactive: 1.3%. In the case of `O=C(OC1CN2CCC1CC2)c1cccc([N+](=O)[O-])c1` (stereo not given) it was inactive: -0.355%; in that of `CCC(C)N(CC(C)C)C(=S)SC(NC(C)=O)C(Cl)(Cl)Cl` (stereo not given), inactive: -1.02%; in that of `CCOC(=O)Nc1ccc([As](=O)(O)O)c(O)c1`, inactive: -0.0294%. Take `CCCCOc1ccc(C(=O)NCC2(N3CCCCC3)CCCCC2)cc1OC`: the activation is inactive: 0.853%. As to `Cc1cc(SC(NC(=O)c2ccccc2)C(Cl)(Cl)Cl)nc(C(C)C)n1` (stereo not given), the activation was inactive: 2.28%. In the case of `CCOC(=O)Nc1cccc([As](=O)(O)O)c1` it was inactive: 1.47%.

Regarding `O=[N+]([O-])c1ccc(Nc2ccc(Oc3ccc([N+](=O)[O-])cc3[N+](=O)[O-])cc2)c([N+](=O)[O-])c1`, the activation was inactive: 2.61%. The result for `Cc1cc(SC(NC=O)C(Cl)(Cl)Cl)ncn1` (stereo not given) reads inactive: 1.55%; that for `O=P(Nc1ccccn1)(c1cccc2ccccc12)c1cccc2ccccc12`, inactive: 2.32%. Take `C[As](=O)(O)c1cccc(C(=O)O)c1`: the activation is inactive: 5.66%. In the case of `O=[As](O)(c1ccc(O)cc1)c1ccccc1O` it was inactive: 1.7%; in that of `COc1cc(C(=O)NCC2(N3CCOCC3)CCCCC2)ccc1OCC(C)C`, inactive: 0.544%.

For the molecule `Cc1ccc2nc3c(c(C)c2c1)CC(C(Cl)Cl)S3` (stereo not given), the activation was inactive: 2.43%. Take `Cc1ccc(OP(=O)(Nc2ccc([N+](=O)[O-])cn2)Oc2ccc(C)cc2)cc1`: the activation was inactive: 1.23%. In the case of `CC(C)c1ccc(OP(=O)(Nc2ccccn2)Oc2ccccc2F)cc1` (stereo not given) it was inactive: 1.88%; in that of `ClCCSc1nnc(-c2cccnc2)o1`, inactive: 2.7%. `CCN(CC)C(=S)SC(NC=O)C(Cl)(Cl)Cl` (stereo not given): the activation was inactive: 0.716%.

`CC(C)NC(=O)NP(=O)(Oc1ccccc1)Oc1ccccc1`: the activation is inactive: 0.584%. Turning to `O=[N+]([O-])c1cc([N+](=O)[O-])c(-c2ccn[nH]2)s1`, the activation was inactive: 1.93%. The result for `O=C(OC1CN2CCC1CC2)C12CC3CC(CC(C3)C1)C2` (stereo not given) reads inactive: -0.883%; that for `Cc1cc(=O)[nH]c(N[N+](=O)[O-])n1`, inactive: -1.12%; that for `Cc1c2c(nc3ccccc13)SC(C(Cl)Cl)C2` (stereo not given), inactive: 2.86%.
